Most compounds without a hit are left out; they make up all but 1.1% or so of the library.
p53 reactivator: mutant p53 re-activation in reporter cells. 0.063% of 320,000 active. AID 504706. H1299 p53-A138V BP100-luciferase reporter, luminescence, 24 h. Potency, µM (doses to about 92.2 µM), without a hit: at the highest dose activity change, positive = activation, most hits filed as activators; also: potency is read from the fitted curve at half-maximal effect; % of control where 0% means no effect; nearly all actives have a fitted effect of over 45% in size
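H1299 (p53-null), stable ts p53-A138V + BP100-Luc; 1000 cells/well, Opti-MEM/10% FBS; cpd 4 pt, 1:5; 24 h, 37 deg C, 5% CO2; detection reagent 10 min RT; luminescence.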
Apoferritin bind: candidate novel general anesthetic via apoferritin binding. P02791. apoferritin/1-aminoanthracene competitive binding, fluorescence. Potency, µM (highest dose often 77.5 µM), inactives show at the highest dose activity change, negative = displacement, hits mostly inhibitors. 0.074% of 350,000 active; also: potency is read from the fitted curve at half-maximal effect; % is scaled to controls: 0 for no effect and ±100 for the full control effect; nearly all actives have a fitted effect of over 20% in size
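Probe: 1-aminoanthracene (50% saturated, PBS). Protein: horse-spleen apoferritin, 10 uM. Incubation: 10 min, room temperature. Detection: 380 nm excitation, 535 nm emission. Analysis: normalized response, four-parameter Hill.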
BRCA1 expr act: increases BRCA1 expression | Potency, µM (top dose mostly 46.1 µM), without a hit: at the highest dose activation, hits mostly activators | 1.1% of 380,000 active | AID 624202 | MCF7-BRCA1-FFLuc reporter, luminescence, 48 h; response scale: scaled: vehicle 0%, 10 µM genistein 100%; also: potency is read from the fitted curve at half-maximal effect; nearly all actives have a fitted effect of over 80% in size
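Luminescence from a BRCA1-driven firefly luciferase in MCF7 cells was the read-out, taken 15 min after substrate addition following 48 h compound exposure at 37 °C. Data were normalized to a 10 microM genistein control and DMSO vehicle.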
miR-21 reporter: miR-21 reporter, rising signal | HeLa miR-21 FLuc reporter, luciferase, 48 h | Potency, µM (top dose mostly 38.3 µM), inactives show at the top dose reporter change, positive = more light | 340,000 tested, under 10 active | AID 2288; active = well fitted rising curve with a large enough effect; inconclusive = small, poorly fitted or top-dose-only effect; inactive = no such curve, though single readings can be large or run the other way;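 further: % of control where 0% means no effect; miR-21 action dims this reporter so a rising signal means less miR-21 action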
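Using DMEM plus 10% FBS, HeLa miR-21-FLuc cells are incubated with test compounds (final up to about 40uM) for 48 hours; firefly luciferase signal is then imaged following reagent-mediated lysis.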
An asterisk follows results filed as active; u = inconclusive; x = no result. Calls follow the shape of the dose curve; as a rule, active = well fitted curve in the direction sought with a large enough effect; inconclusive = small, poorly fitted or top-dose-only effect, or another doubt; inactive = no such curve, though single readings can be large; an effect the other way counts as inactive or inconclusive.

cpd	molecule	miR-21 reporter	BRCA1 expr act	Apoferritin bind	p53 reactivator
1	CCCCCCCNC(=O)C1(CC2CC(c3ccc(Cl)cc3)=NO2)CCN(C(=O)CCCCCBr)CC1 (stereo unspecified)	9.3%	0.0%	u	x
2	O=C(c1ccco1)N1CCCC(Nc2ccc3c(c2)OCCO3)C1 (stereo unspecified)	-35.6%	8.91µM*	u	u
3	NC(=O)C1CCN(c2nc(-c3cc4ccccc4o3)cs2)CC1	x	11.2µM*	x	-1.6%
4	CN1CCN(c2nc(-c3cc4ccccc4o3)cs2)CC1	-64.5%	53.9%	-6.6%	u
5	C/C(=N\NC(=S)NC1CCCCC1)c1ccccc1	-32.2%	34.0%	-3.2%	25.1µM*
6	C/C(=N\NC(=S)NC1CCCCC1)c1ccc(O)cc1	-33.2%	-40.0%	-22.8%	9.1%
7	CN(c1ccc(C(=O)Nc2ccc3c(c2)OCO3)cc1)S(C)(=O)=O	-7.1%	6.31µM*	-5.9%	17.8%
8	Cc1cc(F)ccc1NC(=O)Nc1ccc2c(c1)OCO2	-9.1%	25.9%	-5.0%	u
9	O=C(Nc1ccc2c(c1)OCO2)Nc1ccc(Br)cn1	-49.2%	2.82µM*	8.4%	u
10	COc1ccc(C(=O)/C=C/c2ccc3c(c2)OCCO3)cc1	-24.8%	53.1%	1.2%	u
11	Cc1ccc(NC(=O)Nc2ccc3c(c2)OCO3)cc1F	-60.2%	0.891µM*	2.9%	u
12	CN(c1ccc(C(=O)Nc2ccc3c(c2)OCCO3)cc1)S(C)(=O)=O	-25.4%	23.7%	-9.5%	u
13	O=C(/C=C/c1ccc2c(c1)OCCO2)c1ccccc1	-40.1%	7.08µM*	-9.3%	u
14	CC(=O)Nc1ccc(S(=O)(=O)Nn2cnnc2)cc1	5.7%	25.4%	-1.4%	4.4%
15	Nc1c(Cl)cc(-c2cn(CCC(=O)O)c(-c3ccc(Cl)nc3)n2)cc1Cl	x	15.5%	x	-0.5%

One compound at a time, as listed above:
Entry for CCCCCCCNC(=O)C1(CC2CC(c3ccc(Cl)cc3)=NO2)CCN(C(=O)CCCCCBr)CC1 (stereo unspecified) : miR-21 reporter = 9.3%; BRCA1 expr act = 0.0%; Apoferritin bind = u; p53 reactivator = x
Entry for C/C(=N\NC(=S)NC1CCCCC1)c1ccccc1 : miR-21 reporter = -32.2%; BRCA1 expr act = 34.0%; Apoferritin bind = -3.2%; p53 reactivator = 25.1µM*

(list continues)
cpd	molecule	miR-21 reporter	BRCA1 expr act	Apoferritin bind	p53 reactivator
16	COc1cc(NC(=O)CSc2nc3c(c(=O)n(C)c(=O)n3C)n2C)cc(OC)c1	3.9%	-3.4%	-5.4%	1.3%
17	Cc1ccc(C(c2nnnn2Cc2ccccc2)N2CCN(Cc3ccncc3)CC2)cc1 (stereo unspecified)	x	-11.6%	x	x
18	CC(=O)c1cccc(NC(=O)NCc2ccc3c(c2)OCO3)c1	-2.5%	19.3%	-13.2%	2.4%
19	COc1cccc(NC(=O)Nc2ccc3c(c2)OCO3)c1	-45.9%	2.82µM*	-6.5%	u
20	Cc1ccc(NC(=O)Nc2ccc3c(c2)OCO3)c(OC(F)F)c1	-50.7%	2.51µM*	-8.2%	11.1%
21	CC(=O)c1cccc(NC(=O)Nc2ccc3c(c2)OCO3)c1	-19.5%	11.2µM*	-8.2%	25.2%
22	O=C(CNC(=O)c1ccccc1F)Nc1ccc2c(c1)OCO2	x	7.94µM*	x	u
23	COc1ccc(-c2noc(-c3ccc(NCc4ccc(C)cc4)c([N+](=O)[O-])c3)n2)cc1OC	-14.8%	12.5%	4.5%	x
24	Clc1ccc(Nc2nc(Nc3ccc(Cl)cc3)nc(N3CCOCC3)n2)cc1	x	-17.1%	x	x
25	C/C(=C\C(=O)c1ccc(C)o1)Nc1ccc2c(c1)OCO2	-32.6%	94.1%	-2.0%	9.7%
26	C/C(=C\C(=O)c1ccccc1)Nc1ccc2c(c1)OCO2	-30.7%	7.94µM*	-15.7%	u
27	O=C(NCc1ccc2c(c1)OCO2)Nc1ccc(F)cc1	-49.1%	10µM*	-4.2%	22.3%
28	Fc1ccc(NC(=S)NCc2ccc3c(c2)OCO3)cc1	-1.8%	-1.7%	-12.7%	-1.7%
29	O=C(Nc1cccc(C(F)(F)F)c1)c1cc(-c2ccc(Cl)s2)nc2ccccc12	-4.6%	x	-0.6%	x
30	COc1ccc(/C(N)=N/OC(=O)c2ccco2)cc1OC	-77.6%	7.94µM*	-7.5%	u
31	N/C(=N\OC(=O)c1ccco1)c1cccc(Br)c1	-62.8%	-32.0%	u	23.3%
32	CCOc1ccc(-c2nnc(-c3cccs3)o2)cc1OCC	-64.4%	8.91µM*	-18.7%	16.3%
33	COc1ccc(-c2nnc(-c3cccs3)o2)cc1OC	-71.9%	5.01µM*	0.2%	u
34	COc1cc(-c2nnc(-c3cccs3)o2)cc(OC)c1OC	-13.6%	0.0%	-3.8%	2.9%
35	CCn1c(=O)c2sccc2n2c(CCCC(=O)N3CCN(c4cc(Cl)ccc4C)CC3)nnc12	1.7%	x	-12.8%	x
36	Cc1ccc(/C(N)=N/OC(=O)Cc2cccs2)cc1	-40.1%	11.2µM*	-16.8%	u
37	CCCCSc1ncc(C(=O)OCC)c(N)n1	-69.4%	3.55µM*	-5.6%	u
38	CCOC(=O)c1cnc(SCc2ccc(C)cc2)nc1N	-62.5%	7.08µM*	4.3%	u
39	CCOC(=O)c1cnc(SCCc2ccccc2)nc1N	-62.6%	u	-23.8%	u
40	CC(C)(C)Cc1nc(-c2ccccn2)no1	-38.5%	10µM*	-3.0%	u
41	c1ccc(-c2noc(C34CC5CC(CC(C5)C3)C4)n2)nc1	-56.7%	3.55µM*	u	u
42	Cc1ccc(SCc2nc(-c3ccccn3)no2)cc1	-53.2%	5.01µM*	u	u
43	CCCCC(=O)Nc1ccc2nc(SCC(=O)N3CCCC3)sc2c1	-11.8%	x	-2.3%	x
44	COc1ccc(Cn2c(C(=O)O)c(CNCC(C)c3ccccc3)c3ccc(OC)cc32)cc1 (stereo unspecified)	12.6%	-16.3%	-8.7%	x
45	O=C(Nc1ccnc(=O)[nH]1)c1sc2ccccc2c1Cl	-17.3%	5.62µM*	2.0%	16.5%

Three compounds out of the list above, sorted by their value in miR-21 reporter, highest first.
| no. | SMILES | miR-21 reporter | p53 reactivator |
| --- | --- | --- | --- |
| 35 | CCn1c(=O)c2sccc2n2c(CCCC(=O)N3CCN(c4cc(Cl)ccc4C)CC3)nnc12 | 1.7% | x |
| 34 | COc1cc(-c2nnc(-c3cccs3)o2)cc(OC)c1OC | -13.6% | 2.9% |
| 42 | Cc1ccc(SCc2nc(-c3ccccn3)no2)cc1 | -53.2% | u |

(list continues)
cpd	molecule	miR-21 reporter	BRCA1 expr act	Apoferritin bind	p53 reactivator
46	O=C(Nc1ccc(NC(=O)c2cccs2)c(Cl)c1)c1ccco1	-2.5%	-17.1%	u	-0.2%
47	O=C(Nc1ccc(NC(=O)c2sc3ccccc3c2Cl)cc1Cl)c1ccco1	-18.6%	7.94µM*	-5.3%	-3.1%
48	O=C(COC(=O)/C=C/c1ccccc1)Nc1cccnc1Cl	x	-11.3%	x	3.3%
49	O=C(/C=C/c1ccccc1)Nc1ccc(Br)cn1	-27.9%	1.41µM*	0.4%	0.0%
50	Cc1ccc(NC(=O)/C=C/c2ccc(Cl)cc2)nc1	-31.2%	u	-5.8%	20.1%
51	O=C(/C=C/c1ccccc1)Nc1cccnc1Cl	-63.1%	10µM*	-10.2%	24.1%
52	CCC(C(=O)NCc1ccccc1OC)n1nc(C)n2c(cc3sccc32)c1=O (stereo unspecified)	-1.0%	x	-13.3%	x
53	Cc1ccc(SCc2cn3cccnc3n2)cc1	-36.4%	11.2µM*	-19.7%	u
54	COc1ccc(CC(=O)NC2CC(=O)N(c3cccc(F)c3)C2)cc1OC (stereo unspecified)	5.8%	x	3.7%	x
55	Cc1ccc2cc(NC(=O)c3ccc(C(C)(C)C)cc3)ccc2n1	-16.5%	u	-15.3%	8.9%
56	Cc1ccc2cc(NC(=O)Cc3ccccc3)ccc2n1	-60.6%	4.47µM*	7.0%	13.1%
57	CCc1ccc(C(=O)Nc2ccc3nc(C)ccc3c2)cc1	-61.4%	3.16µM*	-1.4%	u
58	CN(C(=O)c1cccc(NC(=O)Cc2ccccc2)c1)c1ccccc1	13.5%	0.0%	-12.9%	1.6%
59	Cc1ccc2cc(NC(=O)c3ccccc3C)ccc2n1	-73.4%	7.08µM*	-3.1%	u
60	O=C(NCc1ccc(Cl)cc1)C1CCN(S(=O)(=O)c2ccc3c(c2)CCCN3C(=O)C2CCC2)CC1	28.8%	x	28.7%	x
61	O=C(CSc1cn(Cc2ccccc2)c2ccccc12)N1CCOCC1	-47.8%	7.94µM*	-4.7%	25.7%
